Chains of the proteins cited; added tags and fusions are not shown. Residues count along the entry.
UniProt P42226, whole entry: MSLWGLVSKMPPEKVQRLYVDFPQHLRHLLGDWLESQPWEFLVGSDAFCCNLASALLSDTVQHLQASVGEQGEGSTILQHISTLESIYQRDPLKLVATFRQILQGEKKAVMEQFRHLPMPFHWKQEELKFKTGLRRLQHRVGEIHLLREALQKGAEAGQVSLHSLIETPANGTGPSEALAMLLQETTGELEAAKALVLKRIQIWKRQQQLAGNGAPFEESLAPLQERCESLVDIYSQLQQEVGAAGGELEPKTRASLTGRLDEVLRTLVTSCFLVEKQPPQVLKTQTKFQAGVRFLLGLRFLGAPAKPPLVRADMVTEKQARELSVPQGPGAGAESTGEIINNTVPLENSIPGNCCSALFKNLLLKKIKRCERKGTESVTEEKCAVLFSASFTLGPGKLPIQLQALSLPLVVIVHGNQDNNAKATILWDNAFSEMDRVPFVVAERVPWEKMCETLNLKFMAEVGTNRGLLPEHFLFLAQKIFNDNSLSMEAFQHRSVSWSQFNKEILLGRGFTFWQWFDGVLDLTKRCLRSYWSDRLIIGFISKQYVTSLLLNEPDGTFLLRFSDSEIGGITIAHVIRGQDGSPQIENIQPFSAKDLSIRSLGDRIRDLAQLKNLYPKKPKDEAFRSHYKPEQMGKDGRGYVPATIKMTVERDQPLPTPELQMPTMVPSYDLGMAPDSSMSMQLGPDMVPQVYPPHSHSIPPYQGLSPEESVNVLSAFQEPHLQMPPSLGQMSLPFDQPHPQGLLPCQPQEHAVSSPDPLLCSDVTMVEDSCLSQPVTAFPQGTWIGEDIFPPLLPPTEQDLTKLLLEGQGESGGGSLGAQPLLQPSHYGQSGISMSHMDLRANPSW
UniProt P42226, 123-632 limits assumed: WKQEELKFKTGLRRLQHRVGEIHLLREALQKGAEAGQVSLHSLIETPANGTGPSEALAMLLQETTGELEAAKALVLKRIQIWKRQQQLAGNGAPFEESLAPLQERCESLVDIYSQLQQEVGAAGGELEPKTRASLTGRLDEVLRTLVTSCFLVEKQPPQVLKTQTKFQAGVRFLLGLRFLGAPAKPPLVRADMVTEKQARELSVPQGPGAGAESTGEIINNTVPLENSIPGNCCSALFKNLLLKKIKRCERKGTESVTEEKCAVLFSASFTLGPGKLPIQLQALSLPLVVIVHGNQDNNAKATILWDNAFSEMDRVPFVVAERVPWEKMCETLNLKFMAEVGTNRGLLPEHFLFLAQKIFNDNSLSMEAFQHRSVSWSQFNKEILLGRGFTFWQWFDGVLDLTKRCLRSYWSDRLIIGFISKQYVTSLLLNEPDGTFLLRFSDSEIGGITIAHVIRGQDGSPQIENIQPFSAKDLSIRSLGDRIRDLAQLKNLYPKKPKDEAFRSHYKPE

In patent publication US20260124309A1, “STAT6 DEGRADERS AND USES THEREOF” (Kymera Therapeutics, Inc., priority 2023, published 2026):

What was measured:
[1] = target: biotinylated truncated STAT6 (123-632)-avi (Homo sapiens, UniProt P42226); test: STAT6 HTRF binding assay; conditions: read-out: STAT6 HTRF: Average IC50; HTRF binding, 0.15 nM biotinylated truncated STAT6 (123-632)-avi, 20 nM fluorescein-labeled probe
STAT6-HiBiT = STAT6-HiBiT (Homo sapiens, UniProt P42226); test: STAT6 HiBiT degradation in A549 (STAT6-HiBiT) cells; conditions: for DC50: read-out: STAT6 HiBiT degradation DC50 (nM) 24 h
Protocol: Degradation of STAT6 in endogenously tagged STAT6-HiBiT A549 cells was quantitatively measured using the Nano-Glo HiBiT Lytic Detection System (Promega, 3040). A549 (STAT6-HiBiT) cells were seeded in 384-well plates with a density of 1.25k cells per well in 20 μl fresh media. Compounds were then added to the assay plates using the Apricot S3 with a final top concentration of up to 10 uM in a 4-fold dilution series with total of 10 doses. The assay plates were then incubated for 24 hours at 37° C. under 5% CO2. At the assay endpoint, 20 μL of Nano-Glo HiBiT Lytic Reagent was added to each well and agitated on a plate shaker at 300 rpm for 10 minutes at room temperature. Luminescence was read on PHERAStar FSX Instrument (Is integration time). The data was analyzed by GraphPad Prism and the dose dependent STAT6 degradation was fit using the four-parameter inhibitor vs. response nonlinear regression.
The letter codes for DC50 (nM) include: A (<1 nM): B (1-10 nM); C (>10-100 nM); D (>100-1000 nM); E (>1000 nM); and F (not tested). The letter codes for Dmax (%) include: A (>90%); B (>70-90%); C (>50-70%); D (<50%); and E (not tested).

## CN(C)C(=O)c1cc2c(-c3ccc(C4CCN(c5ccc(C6CCC(=O)NC6=O)cc5F)CC4)cc3F)cc(C3=CCCN(C(=O)CCn4ccnn4)C3)c(F)c2[nH]1 (single isomer, unassigned)
[1]
  IC50: < 100 nM
STAT6-HiBiT
  STAT6 HiBiT degradation Dmax % 24 h: A (A (>90%))
  DC50: < 1 nM

## Cc1cc(C2CCN(c3cccc4c3C(C)(C)C(=O)N4C3CCC(=O)NC3=O)CC2)ccc1-c1cc(C2=CCCN(C(=O)CCn3cccn3)C2)c(F)c2[nH]c(C(=O)N(C)C)cc12 (centres unmarked)
[1]
  IC50: 100 to 1000 nM
STAT6-HiBiT
  STAT6 HiBiT degradation Dmax % 24 h: A (A (>90%))
  DC50: < 1 nM

## Cc1c(C2CCN(c3ccc(C4CCC(=O)NC4=O)cc3F)CC2)cnc(-c2cc(C3=CCCN(C(=O)CCn4cccn4)C3)c(F)c3[nH]c(C(=O)N(C)C)cc23)c1F (centres unmarked)
[1]
  IC50: < 100 nM
STAT6-HiBiT
  STAT6 HiBiT degradation Dmax % 24 h: A (A (>90%))
  DC50: < 1 nM

## Cc1cc(C2CCN(c3cccc4c3C(C)(C)C(=O)N4C3CCC(=O)NC3=O)CC2)ccc1-c1cc(C2=CCCN(C(=O)[C@H](C)Cn3cccn3)C2)c(F)c2[nH]c(C(=O)N(C)C)cc12 (some centres unmarked)
[1]
  IC50: 10000 to 100000 nM
STAT6-HiBiT
  STAT6 HiBiT degradation Dmax % 24 h: B (B (>70-90%))
  DC50: 10 to 100 nM

## CN(C)C(=O)c1cc2c(-c3cc(F)c(N4CCN(CCc5cccc6c5C(C)(C)C(=O)N6C5CCC(=O)NC5=O)CC4)cc3Cl)cc(C3=CCCN(C(=O)CCn4cccn4)C3)c(F)c2[nH]1 (centres unmarked)
[1]
  IC50: < 100 nM
STAT6-HiBiT
  STAT6 HiBiT degradation Dmax % 24 h: A (A (>90%))
  DC50: < 1 nM

## CN(C)C(=O)c1cc2c(-c3ccc(C4CCN(c5ccc(C6CCC(=O)NC6=O)cc5F)CC4)c(F)c3F)cc(C3=CCCN(C(=O)CCn4ccnn4)C3)c(F)c2[nH]1 (centres unmarked)
[1]
  IC50: < 100 nM
STAT6-HiBiT
  STAT6 HiBiT degradation Dmax % 24 h: A (A (>90%))
  DC50: < 1 nM

## CN(C)C(=O)c1cc2c(-c3cc(F)c(C4CCN(CCc5cccc6c5C(C)(C)C(=O)N6C5CCC(=O)NC5=O)CC4)cc3Cl)cc(C3=CCCN(C(=O)CCn4cccn4)C3)c(F)c2[nH]1 (centres unmarked)
[1]
  IC50: < 100 nM
STAT6-HiBiT
  STAT6 HiBiT degradation Dmax % 24 h: A (A (>90%))
  DC50: < 1 nM

## Cc1cc(C2CCN(c3cccc4c3C(C)(C)C(=O)N4C3CCC(=O)NC3=O)CC2)ccc1-c1cc(C2=CCCN(C(=O)CCn3ccnn3)C2)c(F)c2[nH]c(C(=O)N(C)C)cc12 (centres unmarked)
[1]
  IC50: < 100 nM
STAT6-HiBiT
  STAT6 HiBiT degradation Dmax % 24 h: A (A (>90%))
  DC50: < 1 nM

## Cc1cc(C2CCN(CCc3cccc4c3C(C)(C)C(=O)N4C3CCC(=O)NC3=O)CC2)ccc1-c1cc(C2=CCCN(C(=O)CCn3ccnn3)C2)c(F)c2[nH]c(C(=O)N(C)C)cc12 (centres unmarked)
[1]
  IC50: < 100 nM
STAT6-HiBiT
  STAT6 HiBiT degradation Dmax % 24 h: A (A (>90%))
  DC50: < 1 nM

## CN(C)C(=O)c1cc2c(-c3ccc(N4CCN(C5CCN(c6ncc(C7CCC(=O)NC7=O)cc6F)CC5)CC4)c(F)c3F)cc(C3=CCCN(C(=O)CCn4cccn4)C3)c(F)c2[nH]1 (centres unmarked)
[1]
  IC50: < 100 nM
STAT6-HiBiT
  STAT6 HiBiT degradation Dmax % 24 h: A (A (>90%))
  DC50: < 1 nM

## CN(C)C(=O)c1cc2c(-c3cc(F)c(C4CCN(c5ccc(C6CCC(=O)NC6=O)cc5F)CC4)cc3F)cc(C3=CCCN(C(=O)CCn4ccnn4)C3)c(F)c2[nH]1 (centres unmarked)
[1]
  IC50: < 100 nM
STAT6-HiBiT
  STAT6 HiBiT degradation Dmax % 24 h: A (A (>90%))
  DC50: < 1 nM

## CC(=O)N1CCC=C(c2cc3cc(C(=O)N(C)C)cc(-c4ccc(C5CCN(c6cccc7c(C8CCC(=O)NC8=O)nn(C)c67)CC5)cc4)c3n2CC2CC2)C1 (centres unmarked)
[1]
  IC50: 1000 to 10000 nM
STAT6-HiBiT
  STAT6 HiBiT degradation Dmax % 24 h: B (B (>70-90%))
  DC50: 1 to 10 nM

## CN(C)C(=O)c1cc2c(-c3ccc(N4CCC(c5ncc(C6CCC(=O)NC6=O)cc5F)CC4)c(F)c3F)cc(C3=CCCN(C(=O)CCn4cccn4)C3)c(F)c2[nH]1 (centres unmarked)
[1]
  IC50: < 100 nM
STAT6-HiBiT
  STAT6 HiBiT degradation Dmax % 24 h: A (A (>90%))
  DC50: < 1 nM

## CN(C)C(=O)c1cc2c(-c3ccc(C4CCN(c5cc(F)c(C6CCC(=O)NC6=O)cc5F)CC4)cc3)cc(C3=CCCN(C(=O)CCn4ccnn4)C3)c(F)c2[nH]1 (centres unmarked)
[1]
  IC50: < 100 nM
STAT6-HiBiT
  STAT6 HiBiT degradation Dmax % 24 h: A (A (>90%))
  DC50: < 1 nM

## CN(C)C(=O)c1cc2c(-c3ccc([C@H]4CCN(C5CCN(c6ccc(C7CCC(=O)NC7=O)cc6F)CC5)CC4(F)F)c(F)c3F)cc(C3=CCCN(C(=O)CCn4cccn4)C3)c(F)c2[nH]1 (some centres unmarked)
[1]
  IC50: < 100 nM
STAT6-HiBiT
  STAT6 HiBiT degradation Dmax % 24 h: A (A (>90%))
  DC50: < 1 nM

## CN(C)C(=O)c1cc2c(-c3ccc([C@@H]4CCN(C5CCN(c6ncc(C7CCC(=O)NC7=O)cc6F)CC5)CC4(F)F)c(F)c3F)cc(C3=CCCN(C(=O)CCn4cccn4)C3)c(F)c2[nH]1 (some centres unmarked)
[1]
  IC50: < 100 nM
STAT6-HiBiT
  STAT6 HiBiT degradation Dmax % 24 h: A (A (>90%))
  DC50: < 1 nM

## CN(C)C(=O)c1cc2c(-c3ccc(C4CCN(c5ccc(NC6CCC(=O)NC6=O)cc5F)CC4)cc3)cc(C3=CCCN(C(=O)CCn4ccnn4)C3)c(F)c2[nH]1 (centres unmarked)
[1]
  IC50: < 100 nM
STAT6-HiBiT
  STAT6 HiBiT degradation Dmax % 24 h: B (B (>70-90%))

## CN(C)C(=O)c1cc2c(-c3ccc(C4CCN(c5cnc(C6CCC(=O)NC6=O)cc5F)CC4)cc3)cc(C3=CCCN(C(=O)CCn4cccn4)C3)c(F)c2[nH]1 (centres unmarked)
[1]
  IC50: < 100 nM
STAT6-HiBiT
  STAT6 HiBiT degradation Dmax % 24 h: A (A (>90%))
  DC50: < 1 nM

## CN(C)C(=O)c1cc2c(-c3ccc([C@H]4CCN(C5CCN(c6ncc(C7CCC(=O)NC7=O)cc6F)CC5)CC4(F)F)c(F)c3F)cc(C3=CCCN(C(=O)CCn4cccn4)C3)c(F)c2[nH]1 (some centres unmarked)
[1]
  IC50: < 100 nM
STAT6-HiBiT
  STAT6 HiBiT degradation Dmax % 24 h: A (A (>90%))
  DC50: < 1 nM

## CN(C)C(=O)c1cc2c(-c3ccc(C4CCN(c5ccc(C6CCC(=O)NC6=O)cc5Cl)CC4)cc3)cc(C3=CCCN(C(=O)CCn4cccn4)C3)c(F)c2[nH]1 (centres unmarked)
[1]
  IC50: 100 to 1000 nM
STAT6-HiBiT
  STAT6 HiBiT degradation Dmax % 24 h: A (A (>90%))
  DC50: < 1 nM

## CN(C)C(=O)c1cc(-c2ccc(C3CCN(c4ccc(C5CCC(=O)NC5=O)cc4F)CC3)cc2F)c2c(c1)cc(C1=CCCN(C(=O)CCn3ccnn3)C1)n2CC1CC1 (centres unmarked)
[1]
  IC50: < 100 nM
STAT6-HiBiT
  STAT6 HiBiT degradation Dmax % 24 h: A (A (>90%))
  DC50: < 1 nM

## Cc1nn(C2CCC(=O)NC2=O)c2cccc(CCN3CC[C@@H](c4cc(F)c(-c5cc(C6=CCCN(C(=O)CCn7cccn7)C6)c(F)c6[nH]c(C(=O)N(C)C)cc56)cc4F)C(F)(F)C3)c12 (some centres unmarked)
[1]
  IC50: < 100 nM
STAT6-HiBiT
  STAT6 HiBiT degradation Dmax % 24 h: A (A (>90%))
  DC50: < 1 nM

## CN(C)C(=O)c1cc2c(-c3ccc(C4CCN(c5ccc(C6CCC(=O)NC6=O)cc5Cl)CC4)cc3)cc(C3=CCCN(C(=O)CCn4ccnn4)C3)c(F)c2[nH]1 (centres unmarked)
[1]
  IC50: < 100 nM
STAT6-HiBiT
  STAT6 HiBiT degradation Dmax % 24 h: A (A (>90%))
  DC50: < 1 nM

## CN(C)C(=O)c1cc(-c2ccc(N3C[C@@H]4CN(c5ccc(C6CCC(=O)NC6=O)cc5F)[C@@H]4C3)c(F)c2)c2c(c1)cc(C1=CCCN(C(=O)CCn3ccnn3)C1)n2CC1CC1 (some centres unmarked)
[1]
  IC50: < 100 nM
STAT6-HiBiT
  STAT6 HiBiT degradation Dmax % 24 h: A (A (>90%))
  DC50: < 1 nM

## CN(C)C(=O)c1cc2c(-c3cc(F)c(N4CCC(N5CCN(c6ccc(C7CCC(=O)NC7=O)c(F)c6)CC5)CC4)cc3F)cc(C3=CCCN(C(=O)CCn4cccn4)C3)c(F)c2[nH]1 (centres unmarked)
[1]
  IC50: < 100 nM
STAT6-HiBiT
  STAT6 HiBiT degradation Dmax % 24 h: A (A (>90%))
  DC50: < 1 nM

## CN(C)C(=O)c1cc(-c2ccc(CC3CCN(c4ccc(C5CCC(=O)NC5=O)cc4F)CC3)cc2)c2c(c1)cc(C1=CCCN(C(=O)CCn3ccnn3)C1)n2CC1CC1 (centres unmarked)
[1]
  IC50: < 100 nM
STAT6-HiBiT
  STAT6 HiBiT degradation Dmax % 24 h: B (B (>70-90%))
  DC50: 1 to 10 nM

## CN(C)C(=O)c1cc2c(-c3ccc(N4CCC(N5CCC(N(C)c6ccc(Cl)c(N7CCC(=O)NC7=O)c6)CC5)CC4)cc3)cc(C3=CCCN(C(=O)CCn4cccn4)C3)c(F)c2[nH]1
[1]
  IC50: < 100 nM
STAT6-HiBiT
  STAT6 HiBiT degradation Dmax % 24 h: A (A (>90%))
  DC50: < 1 nM

## CN(C)C(=O)c1cc2c(-c3ccc(C4CCN(C5CCN(c6ncc(C7CCC(=O)NC7=O)cc6F)CC5)CC4)c(F)c3F)cc(C3=CCCN(C(=O)CCn4cccn4)C3)c(F)c2[nH]1 (centres unmarked)
[1]
  IC50: < 100 nM
STAT6-HiBiT
  STAT6 HiBiT degradation Dmax % 24 h: A (A (>90%))
  DC50: < 1 nM

## CN(C)C(=O)c1cc2c(-c3ccc(C4CCN(c5ccc(C6CCC(=O)NC6=O)c(Cl)c5F)CC4)cc3)cc(C3=CCCN(C(=O)CCn4ccnn4)C3)c(F)c2[nH]1 (centres unmarked)
[1]
  IC50: < 100 nM
STAT6-HiBiT
  STAT6 HiBiT degradation Dmax % 24 h: A (A (>90%))
  DC50: < 1 nM
